Measurements taken from PubChem BioAssay AID651955 (The Scripps Research Institute Molecular Screening Center, 2012).
Only a part is listed here, and it is no random draw. Calls of active or inactive are those of the source. Rule as the data show it: active = activation above about 37%; inactive = the rest.

Sequences of proteins named here, by UniProt entry; tags and fusion partners are left off.
UniProt Q96RJ0, whole entry: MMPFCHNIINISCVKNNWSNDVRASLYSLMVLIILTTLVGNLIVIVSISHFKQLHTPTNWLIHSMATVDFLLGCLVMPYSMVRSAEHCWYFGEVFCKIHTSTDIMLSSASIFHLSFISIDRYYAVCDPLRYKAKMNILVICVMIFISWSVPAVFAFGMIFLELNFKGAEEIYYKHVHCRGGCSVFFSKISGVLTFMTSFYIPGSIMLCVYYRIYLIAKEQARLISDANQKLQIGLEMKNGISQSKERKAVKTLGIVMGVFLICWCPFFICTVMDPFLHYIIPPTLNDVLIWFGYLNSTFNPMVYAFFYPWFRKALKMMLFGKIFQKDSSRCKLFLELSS

molecular target: Trace amine-associated receptor 1 (Homo sapiens) (UniProt Q96RJ0); experiment: TAAR1 activation by candidate antagonists – cell-based, fluorescence, counter-screen for TAAR1 antagonist project (AID 651955); conditions: hTAAR1 cell line, agonist mode, at 3 µM, stronger effect = higher value;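 also: CHO cells stably expressing TAAR1 with calcium dye readout; 0% = DMSO vehicle and 100% = full agonist response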

SMILES	activation
CCCCn1nnnc1C(c1cc2ccccc2o1)N1CCC(n2c(=O)[nH]c3ccccc32)CC1 (stereo not drawn)	inactive: 13.2%
O=c1[nH]c2ccccc2n1C1CCN(C(c2ccccc2)c2nnnn2C2CCCCC2)CC1 (stereo not drawn)	inactive: 25.7%
COc1cccc(C(c2nnnn2C2CCCC2)N2CCC(n3c(=O)[nH]c4ccccc43)CC2)c1OC (stereo not drawn)	inactive: 33.9%
O=c1[nH]c2ccccc2n1C1CCN(C(c2ccnc3ccccc23)c2nnnn2C2CCCCC2)CC1 (stereo not drawn)	active: 46.5%
O=c1[nH]c2ccccc2n1C1CCN(C(c2ccccc2)c2nnnn2C2CCCC2)CC1 (stereo not drawn)	inactive: 16.5%
CCCCn1nnnc1C(c1ccccc1)N1CCC(n2c(=O)[nH]c3ccccc32)CC1 (stereo not drawn)	inactive: 14.4%
O=c1[nH]c2ccccc2n1C1CCN(C(c2cccs2)c2nnnn2C2CCCCC2)CC1 (stereo not drawn)	inactive: 35.7%
O=c1[nH]c2ccccc2n1C1CCN(C(c2cccs2)c2nnnn2C2CCCC2)CC1 (stereo not drawn)	active: 38.8%
